Measurements as given in US20120009152A1, “NITRIC OXIDE DONORS FOR TREATMENT OF DISEASE AND INJURY” (priority 2002, published 2012).

System: cGMP
Experiment: cGMP measurement in brain tissue
Type: in vivo, rat
Conditions: nonischemic rats; sildenafil 2 or 5 mg/kg for 7 days; vs control group
Procedure: Ischemic rats (n=9) were treated with the same volume of tap water as a control group. Functional tests were performed and body weight was measured before ischemia and at 4, 7, 14, 21, and 28 days after onset of MCA occlusion. All rats were killed 28 days after MCA occlusion. […] These rats were killed 1 hour after the last treatment for measurements of brain levels of cGMP. […] Reverse transcription (RT)-polymerase chain reaction (PCR) was performed to detect PDE5 in brain tissue. Levels of cGMP were measured with the use of a commercially available low-pH immunoassay kit (R&D Systems Inc). The sensitivity of the assay was approximately 0.6 pmol/mL for the nonacetylated procedure. The brain was rapidly removed, and the cortex and the cerebellum were separated.

SMILES: CCCc1nn(C)c2c(=O)[nH]c(-c3cc(S(=O)(=O)N4CCN(C)CC4)ccc3OCC)nc12 [Sildenafil]
- cortical levels of cGMP: significantly (P=0.05) increased the cortical levels of cGMP
